Measurements from patent US10613078B2, “Assays for measuring cardiotoxicity” (NCARDIA B.V., priority 2015, dated 2020).

Tested on: human stem-cell derived cardiomyocytes

Herceptin: monoclonal antibody trastuzumab (Herceptin) that targets the human ERBB2 receptor
effect on ATP levels with addition of Neuregulin ligand: effects of Herceptin at both doxorubicin concentrations tested
